The source of these data is patent US11584712B2, “Alkylamine-substituted perthiocarbamates as dual precursors to hydropersulfide and carbonyl sulfide” (The Johns Hopkins University, priority 2020, dated 2023).

The assay deals with H9c2 cells. The experiment in a line: H9c2 cell protection from H2O2-mediated oxidative stress, Cell Counting Kit-8 (CCK-8). The note with it: 2 h pretreatment (7b 50, 100, 150 μM; byproduct 150 μM), then H2O2 200 μM 2 h. It counts as cell-based, rat. A general note: Tetrazolium assays rely on reduction of a dye to a coloured formazan, in cell work by metabolically active cells.

Molecules are shown by their SMILES.

In the case of `CN1CCN(C)C1=O` [byproduct 2a, 1,3-dimethyl-2-imidazolidinone], the “protection against H2O2-mediated toxicity (CCK-8 viability)” value is given as “no protective effect”.
